Measurements as given in patent US11506654B2, “Method, composition and kit for screening ALK or ROS-1 kinase inhibitor” (KOREA INSTITUTE OF SCIENCE AND TECHNOLOGY, priority 2018, dated 2022).

Tests used:
HCC-78 cells = assay: WST-1 assay, cell growth inhibitory effect on lung carcinoma cell line (HCC-78); format: cell-based; conditions: 1 μM
Experimental: Specifically, HCC-78 lung cancer cells deposited under an accession number of KCTC13642BP on Sep. […] At this time, DMSO (dimethyl sulfoxide) was added to a control group in an amount to be 0.01% of the total medium, 1 μM doxorubicin was added to a positive control group, and then these control group and positive control group were cultured for 24, 48, and 72 hours, respectively. In addition, the experiment was conducted using an A549 cell line instead of the HCC cell line as a negative control group. The A549 cell line is a kRAS mutant cell line and is also a cell line which is not involved in the overexpression of ALK and ROS-1.
When each of the culture times passed after drug treatment, the WST-1 reagent was added to each medium in an amount to be 10% of the medium, the cells were cultured for 1 hour, and then the absorbance of cells was measured at 470 nm by using an ELISA instrument.

[1] = system: MCF-7 breast cancer cells; assay: MTT assay, cell viability of breast cancer cell line (MCF-7); format: cell-based; conditions: 1 μM, 72 hours
Experimental: Specifically, MCF-7 breast cancer cells deposited under an accession number of KCTC13643BP on Sep. […] At this time, DMSO (dimethyl sulfoxide) was added to a control group in an amount to be 0.01% of the total medium, 1 μM paclitaxel was added to a positive control group, and then these control group and positive control group were cultured for 72 hours.
When each of the culture times passed after drug treatment, the supernatant of each medium was removed, the MTT reagent was added to the fresh medium so as to be 0.5 mg/ml, the cells were cultured for 3 hours, then the supernatant was removed again, and then the medium was reconstituted with 100 μL of DMSO. Thereafter, the absorbance of cells was measured at 590 nm by using an ELISA instrument.

C[C@@H](Oc1cc(-c2cnn(C3CCNCC3)c2)cnc1N)c1c(Cl)ccc(F)c1Cl [crizotinib]
growth rate of HCC-78 cells (control group = 100%) (HCC-78 cells; 24 hours after treatment): 77.13% | growth rate of HCC-78 cells (control group = 100%) (HCC-78 cells; 48 hours after treatment): 37.63% | growth rate of HCC-78 cells (control group = 100%) (HCC-78 cells; 72 hours after treatment): 16.04% | cell growth rate of MCF-7 as compared with control group [1]: 48.45%
